These results are taken from patent US11927585B2, “Solvent-based inks and coatings for food contact applications” (SUN CHEMICAL CORPORATION, priority 2020, dated 2024).

The nature of data set [1]: Migration testing, 50% ethanol at 20° C., GC-MS. Particulars: from print of ink SBDEV977 (Ex. 4A Yellow), 2.0 g/m^2, 10 days; ND = not detected.
A short description of data set [2]: Migration testing, hot fill boiled water test, GC-MS. Particulars: from print of ink SBDEV977 (Ex. 4A Yellow), water at 100° C. then cooled about 1 hour, ND = not detected, asterisk = exceeds SML.
Data set [3] in a line: Evaluation of empirical migration levels against SML in the exposure scenarios (adjusted migration, coverage restriction). To be noted: from SBDEV977; for empirical migration level in the packaging scenario (of the SML): Application 1 (Yoghurt lids), 39% of EU Cube exposure; for true migration value in the packaging scenario (of the SML): highest measured migration value.
A short description of data set [4]: Migration testing, 3% acetic acid at 20° C., GC-MS. Particulars: from print of ink SBDEV977 (Ex. 4A Yellow), 2.0 g/m^2, 10 days, ND = not detected, asterisk = exceeds SML.

Molecules are shown by their SMILES. Marks after values point to notes of the source that are not given here.

For the compound `CCCCOP(=O)(OCCCC)OCCCC`, the “Analytically measured migration (% SML) 50% EtOH 20° C.” value in data set [1] is listed as 46 % SML. Moreover, the “Analytically measured migration (% SML) Hot fill boiled water” value is 200* % SML in data set [2] and 200 % SML in data set [2] (listed as Tributyl phosphate). In addition, the “empirical migration level in the packaging scenario (of the SML)” value in data set [3] (3% acetic acid at 20° C. test) is recorded as 69%; in data set [3] (hot filled boiled water test), 78%. In addition, the “true migration value in the packaging scenario (of the SML)” value in data set [3] (Application 2 (Wrap covering cheese), 144% of EU Cube exposure) was 288%; in data set [3] (Application 3 (Coffee capsules), upper end 152% of EU Cube exposure), 304%. Besides, the “Analytically measured migration (% SML) 3% acetic acid 20° C.” value in data set [4] was 178* % SML; in data set [4] (listed as Tributyl phosphate) it was 178 % SML.
